Results published in patent US9890185B2, “Urea derivatives useful as kinase inhibitors” (Respivert Limited, priority 2013, dated 2018).

Tested on: endotoxin (LPS)-induced uveitis
Assay: Endotoxin-induced uveitis in rats (in vivo assay vi)
Design: species or system Lewis rats
Settings: LPS-stimulated rats, topical to eye, 1 mg/mL
Description: Male, Lewis rats (6-8 weeks old, Charles River UK Limited) are housed in cages of 3 at 19-21° C. with a 12 h light/dark cycle (07:00/19:00) and fed a standard diet of rodent chow and water ad libitum. […] Untreated rats are injected with PBS. […] Before administration, the solution or suspension to be administered is agitated for 5 minutes to ensure a uniform suspension. 6 hours after LPS dosing, animals are euthanized by overdose with pentobarbitone (i.v.). Following euthanasia, the right eye of each animal is enucleated and dissected into front (anterior) and back (posterior) sections around the lens. Each section is weighed and homogenised in 500 μL of sterile phosphate buffered saline followed by 20 minutes centrifugation at 12000 rpm at 4° C. The resulting supernatant is divided into 3 aliquots and stored at −80° C. until subsequent cytokine analysis by R&D DuoSet ELISA.

For C[C@@H]1C[C@H]2[C@@H]3CCC4=CC(=O)C=C[C@]4(C)[C@@]3(F)[C@@H](O)C[C@]2(C)[C@@]1(O)C(=O)CO [Dexamethasone, dexamethasone, reference compound], the “IL-1β Anterior tissue” value was 313.9 ± 109.6 pg/mL and the “IL-1β Posterior tissue” value was 215.2 ± 88.5 pg/mL.
